Reference: ChEMBL document CHEMBL3603773, “Synthesis of novel triazoles and a tetrazole of escitalopram as cholinesterase inhibitors” (Bioorg Med Chem, 2015)

Sequences of proteins named here, by UniProt entry; tags and fusion partners are left off.
UniProt P06276, whole entry: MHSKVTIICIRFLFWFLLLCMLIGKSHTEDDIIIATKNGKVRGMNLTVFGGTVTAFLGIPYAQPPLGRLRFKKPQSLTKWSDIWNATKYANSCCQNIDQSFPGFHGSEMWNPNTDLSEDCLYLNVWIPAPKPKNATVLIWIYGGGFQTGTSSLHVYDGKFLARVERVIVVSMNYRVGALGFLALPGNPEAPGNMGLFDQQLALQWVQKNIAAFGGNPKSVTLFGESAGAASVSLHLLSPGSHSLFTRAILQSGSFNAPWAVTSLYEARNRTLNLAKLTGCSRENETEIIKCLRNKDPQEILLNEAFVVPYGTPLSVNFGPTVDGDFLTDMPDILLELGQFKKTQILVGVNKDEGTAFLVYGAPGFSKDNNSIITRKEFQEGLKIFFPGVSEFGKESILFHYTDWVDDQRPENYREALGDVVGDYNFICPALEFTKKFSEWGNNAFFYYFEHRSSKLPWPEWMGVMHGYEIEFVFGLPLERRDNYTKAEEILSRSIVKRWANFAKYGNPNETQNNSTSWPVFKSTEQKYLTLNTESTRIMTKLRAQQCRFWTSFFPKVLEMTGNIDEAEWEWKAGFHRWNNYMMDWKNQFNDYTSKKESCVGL

Target: Cholinesterase (Homo sapiens, UniProt P06276)
Assay: Inhibition of BChE (unknown origin) using butyrylthiocholine chloride as substrate at 0.5 mM preincubated for 30 mins before substrate addition measured after 30 mins by Ellman method relative to control

With `CNC(=O)Oc1ccc2c(c1)[C@]1(C)CCN(C)[C@@H]1N2C` the inhibition was 82.8%.
